Calls of active or inactive are those of the source. No rule for the calls is given here.
Target: Ubiquitin-conjugating enzyme E2 N (Homo sapiens) (UniProt P61088)
Experiment: UBE2N binders by NMR, biophysical, purified protein (AID 1552)
Settings: NMR binding to purified UBE2N

Sequences of proteins named here, by UniProt entry; tags and fusion partners are left off. A change or cut given only in a name is not applied to a line headed by its entry.
UniProt P61088: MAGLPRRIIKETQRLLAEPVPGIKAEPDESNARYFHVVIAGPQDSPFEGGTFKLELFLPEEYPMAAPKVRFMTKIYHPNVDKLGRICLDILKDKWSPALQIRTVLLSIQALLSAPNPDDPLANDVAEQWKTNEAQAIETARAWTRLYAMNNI

Compound: Cc1c2non([O-])c-2c(C)[n+](=O)[n+]1[O-]
- Kd: inactive: > 4 mM

Reference: PubChem BioAssay AID1552 (Sanford-Burnham Center for Chemical Genomics, 2009)
